This experiment has as its target PIM-2 (Homo sapiens, UniProt Q9P1W9). As to the kind of experiment: PIM-2 assay, IC50 determination (luciferase-luciferin ATP depletion, 10-point dose response). Type of experiment: biochemical. To be noted: 10 nM PIM-2, 1 μM ATP, 50 μM peptide substrate, 15 minutes at room temperature.

The chains behind the UniProt entries cited, without tags or fusion partners. Where a name states a change or a piece, a line headed by the entry shows the natural chain unless it says otherwise.
UniProt Q9P1W9: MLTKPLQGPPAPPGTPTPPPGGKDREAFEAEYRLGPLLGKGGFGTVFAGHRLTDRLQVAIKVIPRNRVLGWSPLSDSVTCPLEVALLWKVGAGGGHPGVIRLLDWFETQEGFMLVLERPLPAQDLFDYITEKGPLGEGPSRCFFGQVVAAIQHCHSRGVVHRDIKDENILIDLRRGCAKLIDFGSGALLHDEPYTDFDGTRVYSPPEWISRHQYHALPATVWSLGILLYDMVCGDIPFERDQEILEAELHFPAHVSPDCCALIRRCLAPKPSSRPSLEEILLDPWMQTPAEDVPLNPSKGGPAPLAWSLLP

pIC50: −log10 of the molar value.

We go through 2 molecules from patent US8318723B2, “Pyrazine compounds, their use and methods of preparation” (Boehringer Ingelheim International GmbH, priority 2006, dated 2012).

A word on the pIC50: it is the negative decadic logarithm of the IC50, by convention in mol/L. High values mean a small IC50, low ones a large IC50. As to `N[C@H]1CC[C@@H](Nc2cncc(-c3cccc(/C=C/C(=O)O)c3)n2)CC1` [compound 2, (E)-3-{3-[6-(4-Amino-cyclohexylamino)-pyrazin-2-yl]-phenyl}-acrylic acid], the pIC50 is 7.72.

In turn, `N[C@H]1CC[C@H](Nc2cncc(-c3cccc(/C=C/C(=O)O)c3)n2)CC1` [compound 1, (E)-3-{3-[6-(4-Amino-cyclohexylamino)-pyrazin-2-yl]-phenyl}-acrylic acid] had a pIC50 of 7.92.
